From publication PMC6852796 (Asian Pacific Journal of Cancer Prevention : APJCP, 2019)
“And” between values parts separate entries of the source, which are not always exact repeats. Equal entries are not always repeated.

Amino acid sequences for entries named in this document (tags omitted). A change or cut given only in a name is not applied to a line headed by its entry.
UniProt P22411: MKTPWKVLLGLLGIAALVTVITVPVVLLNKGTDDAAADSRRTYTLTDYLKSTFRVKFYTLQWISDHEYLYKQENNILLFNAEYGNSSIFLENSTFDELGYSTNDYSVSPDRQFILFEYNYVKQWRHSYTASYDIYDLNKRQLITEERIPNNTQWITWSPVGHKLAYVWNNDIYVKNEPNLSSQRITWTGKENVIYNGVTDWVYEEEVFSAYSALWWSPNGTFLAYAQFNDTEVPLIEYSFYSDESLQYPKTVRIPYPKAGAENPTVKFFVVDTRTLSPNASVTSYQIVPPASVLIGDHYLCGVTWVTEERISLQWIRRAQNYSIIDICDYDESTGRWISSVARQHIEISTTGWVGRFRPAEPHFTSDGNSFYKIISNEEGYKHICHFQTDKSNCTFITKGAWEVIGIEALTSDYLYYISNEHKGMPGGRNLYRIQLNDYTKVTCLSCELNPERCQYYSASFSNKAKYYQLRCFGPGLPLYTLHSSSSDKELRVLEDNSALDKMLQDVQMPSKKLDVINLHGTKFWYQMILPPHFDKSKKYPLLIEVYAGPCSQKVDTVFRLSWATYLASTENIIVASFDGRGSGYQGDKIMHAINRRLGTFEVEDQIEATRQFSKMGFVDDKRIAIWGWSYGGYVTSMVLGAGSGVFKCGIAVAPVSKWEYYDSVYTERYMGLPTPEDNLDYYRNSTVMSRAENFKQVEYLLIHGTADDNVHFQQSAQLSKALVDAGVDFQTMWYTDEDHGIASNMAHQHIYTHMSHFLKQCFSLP

Biological target: DPPIV from porcine kidney (Sus scrofa, UniProt P22411)
Experiment: DPP IV inhibition in vitro
Assay type: biochemical
Conditions: DPP4-IC50 value, tested 0.01-100 µg/mL

In the case of `CC[C@H](C)[C@H](N)C(=O)N1CCC[C@H]1C(=O)N[C@H](C(=O)O)[C@@H](C)CC` [Diprotin-A, Ile-Pro-Ile], the IC50 is reported as 5.14 µM and 5.15 µM.
